Experimental data reported in patent US20240252654A1, “IMPROVED SMALL MOLECULES” (University of Dundee, priority 2020, published 2024).

Protein sequences, listed by entry. Tags and fused reporters are not part of them. Lines headed by an entry give the natural chain unless they say otherwise; changes in a name come on top. Residues count along the entry.
UniProt P25440, whole entry: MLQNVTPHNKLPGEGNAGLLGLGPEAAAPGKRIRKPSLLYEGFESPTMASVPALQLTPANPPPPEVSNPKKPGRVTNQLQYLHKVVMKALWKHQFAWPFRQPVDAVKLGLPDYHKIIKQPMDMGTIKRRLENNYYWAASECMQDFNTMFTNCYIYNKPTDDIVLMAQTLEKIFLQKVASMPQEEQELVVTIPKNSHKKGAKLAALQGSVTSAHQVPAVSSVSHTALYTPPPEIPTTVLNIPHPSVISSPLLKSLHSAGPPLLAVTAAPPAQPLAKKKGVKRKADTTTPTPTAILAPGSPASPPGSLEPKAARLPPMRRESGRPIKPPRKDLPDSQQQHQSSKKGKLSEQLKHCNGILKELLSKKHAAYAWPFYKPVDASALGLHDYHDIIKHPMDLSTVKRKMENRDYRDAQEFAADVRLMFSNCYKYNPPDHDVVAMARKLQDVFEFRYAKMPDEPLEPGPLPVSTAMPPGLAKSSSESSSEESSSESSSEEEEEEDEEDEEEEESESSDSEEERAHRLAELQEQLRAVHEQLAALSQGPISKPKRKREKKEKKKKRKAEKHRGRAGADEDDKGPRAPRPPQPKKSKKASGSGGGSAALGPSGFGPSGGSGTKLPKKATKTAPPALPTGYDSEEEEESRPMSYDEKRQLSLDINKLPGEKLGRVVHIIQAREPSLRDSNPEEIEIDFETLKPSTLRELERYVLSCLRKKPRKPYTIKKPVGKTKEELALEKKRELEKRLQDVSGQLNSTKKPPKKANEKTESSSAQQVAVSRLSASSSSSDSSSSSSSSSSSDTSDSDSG
UniProt Q15059, whole entry: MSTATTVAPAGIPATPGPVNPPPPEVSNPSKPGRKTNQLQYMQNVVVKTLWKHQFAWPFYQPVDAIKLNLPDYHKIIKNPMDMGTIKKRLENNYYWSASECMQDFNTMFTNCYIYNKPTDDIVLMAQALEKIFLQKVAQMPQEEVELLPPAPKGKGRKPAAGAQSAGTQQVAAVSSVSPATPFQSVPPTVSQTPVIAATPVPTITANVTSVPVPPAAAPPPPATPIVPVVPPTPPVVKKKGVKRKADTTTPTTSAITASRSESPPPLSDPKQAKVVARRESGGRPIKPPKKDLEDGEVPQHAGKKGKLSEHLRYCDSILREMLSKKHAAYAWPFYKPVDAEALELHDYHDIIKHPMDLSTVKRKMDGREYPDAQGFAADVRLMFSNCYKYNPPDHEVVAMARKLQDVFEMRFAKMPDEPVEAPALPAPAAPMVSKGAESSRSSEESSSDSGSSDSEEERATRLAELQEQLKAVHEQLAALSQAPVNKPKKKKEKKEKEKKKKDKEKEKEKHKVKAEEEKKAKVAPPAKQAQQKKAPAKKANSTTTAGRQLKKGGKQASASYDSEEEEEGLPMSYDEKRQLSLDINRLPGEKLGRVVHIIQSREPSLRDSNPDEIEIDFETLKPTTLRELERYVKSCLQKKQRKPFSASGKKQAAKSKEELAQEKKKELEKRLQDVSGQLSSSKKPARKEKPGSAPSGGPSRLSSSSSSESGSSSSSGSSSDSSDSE
UniProt P40337, 54-213 limits assumed: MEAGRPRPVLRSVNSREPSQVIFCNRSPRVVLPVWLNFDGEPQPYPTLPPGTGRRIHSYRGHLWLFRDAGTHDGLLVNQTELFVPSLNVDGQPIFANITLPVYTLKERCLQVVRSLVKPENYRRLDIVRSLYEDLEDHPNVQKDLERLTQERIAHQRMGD

Experiments:
HiBiT-BRD4 [1] = target: T1, HiBiT-BRD4 (Homo sapiens, UniProt O60885); test: Live-cell kinetic degradation, CRISPR HiBiT-BRD4 HEK293 cells
HiBiT-BRD2 = HiBiT-BRD2 (Homo sapiens, UniProt P25440); test: Live-cell kinetic degradation, CRISPR HiBiT-BRD2 HEK293 cells
HiBiT-BRD3 = HiBiT-BRD3 (Homo sapiens, UniProt Q15059); test: Live-cell kinetic degradation, CRISPR HiBiT-BRD3 HEK293 cells
[2] = tested on: HiBiT-BRD2, BRD3, and BRD4; test: Degradation washout experiment, CRISPR HiBiT-BET HEK293 cells; conditions: monitored 50 h
[3] = tested on: HiBiT-BET proteins with HaloTag-Ubiquitin; test: NanoBRET ubiquitination kinetics; format: cell-based, human
Method: Shown in FIG. 2e, the kinetic increase in cellular ubiquitination was more robust for BRD2 as compared to BRD3 and BRD4 after a treatment with 10 nM of compound SIM1.
(§1) NanoBRET Ubiquitination, Ternary Complex, and Biosensor Experiments. For endogenous live cell BET:Ubiquitin and BET:VHL assays, CRISPR HiBiT-BRD2, HiBiT-BRD3, and HiBiT-BRD4 HEK293 cells stably expressing LgBiT were transfected with 2 μg of HaloTag-UBB or HaloTag-VHL vectors in 6-well plates using FuGENE HD (Promega). For full transient NanoBRET experiments with NanoLuc-BRD4 WT, N433F, or N140F mutants, HEK293 cells (8×10^5) were co-transfected with 0.02 μg NanoLuc-BRD4 and 2 μg of HaloTag-VHL vectors. For transient NanoBRET experiments with the BRD4 NL-BD1-BD2-HT biosensor containing either the WT tandem BD1-BD2 domain (AA 44-460) or containing the N433F mutation, HEK293 cells (8×10^5) were transfected with 0.02 μg biosensor plasmid and 2 μg carrier DNA. […] NanoBRET NanoGlo (Promega) substrate was added and BRET was measured two hours post-compound treatment using a GloMax Discover Microplate Reader (Promega). Dual filtered luminescence was collected with a 460/80 nm bandpass filter and a 610 nm long pass filter (acceptor, HaloTag NanoBRET ligand) using an integration time of 0.5 s. For all NanoBRET experiments, background subtracted NanoBRET ratios expressed in milliBRET units were calculated from the equation: […]

[4] = tested on: BRD2, BRD3, BRD4 and Myc in 22Rv1 prostate cancer cell line; test: Immunoblot of BET proteins and cMyc in 22Rv1 cells; conditions: 4 h, compared to MZ1, ARV-771, MT1 and cis-SIM1
MV4; 11 cells [5] = test: Correlative cell viability in cMyc-HiBiT MV4;11 cells (CellTiter-Glo); conditions: 1 nM, after 6 h
22Rv1 cells [6] = test: PARP cleavage immunoblot in 22Rv1 cells; conditions: 22Rv1, 10 nM, 24 h (MT1, MZ1 up to 48 h)
MV4; 11 cells [7] = test: Early and late apoptosis by Apotracker Green/DAPI flow cytometry; conditions: 1 nM, 24 h, versus tenfold higher (R,S)-SIM1, MZ1 or MT1
22Rv1 cells [8] = test: Caspase-Glo 3/7 assay; conditions: read-out: EC50 (Caspase-Glo); 22Rv1, 24 h
22Rv1 cells [9] = test: Clonogenic (colony-formation) assay; conditions: 10 nM for 24 h, re-plated, 20 days
HiBiT-BRD4 [10] = target: T1, HiBiT-BRD4; test: NanoBRET target engagement, permeabilized and live cells; format: cell-based
[11] = tested on: BRD2(1,2), BRD3(1,2), BRD4(1,2) and full-length BRD4; test: Phage-based bromodomain displacement assay (BROMOscan)
BRD4 N433F tandem = BRD4 N433F tandem (Homo sapiens, UniProt O60885+P40337, N433F); test: ITC, BRD4 tandem titrated into SIM1:VCB; format: binding; conditions: 25° C.
BRD4 WT BD1-BD2 = BRD4 WT BD1-BD2 (Homo sapiens, UniProt O60885+P40337); test: ITC, BRD4 tandem titrated into SIM1:VCB; format: binding; conditions: 25° C.
VCB = VCB (Homo sapiens, UniProt O60885+P40337); test: SPR binding to immobilized biotinylated VCB
[12] = tested on: VHL and full-length BRD4 WT, N140F, or N433F; test: Kinetic NanoBRET ternary complex assay, NanoLuc-BRD4 with HaloTag-VHL
[13] = tested on: HiBiT BET family members with VHL; test: NanoBRET ternary complex kinetics, HiBiT-BET with HaloTag-VHL; format: cell-based, human; conditions: 100 nM
Method: Values are expressed as fold increase over DMSO control.
as §1

## Cc1ncsc1-c1ccc(CNC(=O)[C@@H]2C[C@@H](O)CN2C(=O)[C@@H](NC(=O)COCC(C)(COCCOCCOCCNC(=O)C[C@@H]2N=C(c3ccc(Cl)cc3)c3c(sc(C)c3C)-n3c(C)nnc32)COCCOCCOCCNC(=O)C[C@@H]2N=C(c3ccc(Cl)cc3)c3c(sc(C)c3C)-n3c(C)nnc32)C(C)(C)C)cc1
HiBiT-BRD4 [1]
  increase in degradation potency (Dmax50) versus ARV-771 and MZ1: 10-20 ×
HiBiT-BRD2
  increase in degradation potency (Dmax50) versus ARV-771 and MZ1: 80-300 ×
HiBiT-BRD3
  increase in degradation potency (Dmax50) versus ARV-771 and MZ1: 2-35 ×
[2]; 10 nM for 3.5 h then washout
  BET protein level after washout: partial recovery
[2]; 100 nM for 3.5 h then washout
  BET protein level after washout: remained at constant low levels after washout
[3]; 10 nM
  kinetic increase in cellular ubiquitination: more robust for BRD2 as compared to BRD3 and BRD4
[3]; 100 nM
  levels of ubiquitination compared with MZ1: higher levels of ubiquitination of all BET family members
[4]
  BET degradation potency and cMyc level suppression: enhancement in BET degradation potency and cMyc level suppression activity
MV4; 11 cells [5]
  measurable cellular death: measurable cellular death after 6 h
22Rv1 cells [6]
  PARP cleavage / cell death: Substantial cell death
MV4; 11 cells [7]
  early and late apoptosis induction: much greater degree of both early and late apoptosis
22Rv1 cells [8]
  EC50: 0.002 µM
22Rv1 cells [9]
  cytotoxicity in colony-formation assay: significant cytotoxicity
HiBiT-BRD4 [10]; inferred from live versus permeabilized cells
  cell permeability: readily cell-permeable
HiBiT-BRD4 [10]; permeabilized cells
  binding to endogenous HiBiT-BRD4: near-identical binding affinities and IC50 values
HiBiT-BRD4 [10]; read-out: IC80 for tracer displacement, live cell format, unit given with each value
  IC80: 1 µM
[11]
  affinity to tandem bromodomain constructs: picomolar affinity
  increase in affinity compared to (R,S)-SIM1: 50-90 ×
BRD4 N433F tandem
  ΔH: -48.5 kJ/mol
BRD4 WT BD1-BD2
  ΔH: -83.7 kJ/mol
VCB; SIM1:BD1-BD2, 1:1 binding model
  % Rmax: 64.7±2.3%
VCB; SIM1 alone
  % Rmax: 77%
VCB; ternary complex dissociative half-life
  t1/2: 1.98 ± 0.35 min
[12]; BRD4 N140F mutation
  ternary complex formation: markedly reduced
[12]; BRD4 N433F mutation
  ternary complex formation: almost abolished
[12]; BRD4 WT
  ternary complex formation: rapidly formed
[13]
  ternary complex formation compared to MZ1: more robust and sustained ternary complex was observed for BRD2 and BRD4
